From article PMC9859815, “Pharmacokinetics and bioequivalence evaluation of omeprazole and sodium bicarbonate dry suspensions in healthy Chinese volunteers” (Scientific Reports, 2023)
Like-named read-outs stand apart in the source and are kept apart here.

Columns and labels:
[1] = Single-dose, 2-sequence, 2-period crossover pharmacokinetic/bioequivalence study, fasting oral administration, healthy Chinese subjects (also by CYP2C19 phenotype and gender); type: in vivo, human; conditions: mean ± SD
Protocol: Forty subjects were randomly divided into two groups, with 20 patients in each group. The drugs were given to the patients of each group in the order of T-R and R-T in two cycles, with a single dose of 1 bag (each bag: 20 mg omeprazole + 1680 mg sodium bicarbonate). The subjects in each group fasted after 21:00 the night before administration. Collecting plasma samples at 0 h (within 60 min before administration) and after administration of 5 min, 10 min, 15 min, 20 min, 30 min, 45 min, 1 h, 1.5 h, 2 h, 3 h, 4 h, 6 h, 8 h, 10 h, 12 h (a total of 16 points) and stored at − 80 °C until analysis. The blood samples were centrifuged at 1700 g (4 °C) for 10 min within 1 h of collection. The centrifuged plasma was immediately aliquoted into 2 tubes with corresponding labels (1 for testing, 1 for backup, the volume of plasma in each tube should not be less than 500 µL) and stored at […] until analysis. The total time from whole blood collection to centrifugation to separate plasma and then stored in […] refrigerator should not exceed 2 h.
The concentration of omeprazole in EDTA-K2 anticoagulant human plasma was determined by HPLC–MS/MS, quantified by internal standard (internal standard: omeprazole-D3). The sample pretreatment method was the protein precipitation method. And the linear range of the omeprazole plasma concentration determination method was 4–4000 ng mL^−1, the minimum quantitative limit was 4 ng mL^−1.
The pharmacokinetic (PK) parameters evaluated in this study included maximum plasma omeprazole concentration (Cmax) and time to reach the maximum plasma concentration (Tmax) obtained directly from non-interpolated data, as well as the area under the plasma concentration curve of omeprazole at 0-t after administration (AUC0–t) using the linear trapezoidal method to calculate. Terminal elimination rate constant λz and the apparent terminal elimination half-life (T1/2) were also needed. AUC0–∞ (the AUC from time 0 to infinity) used the formula: AUC0–∞ = AUC0–t + Ct/λ(T1/2 = 0.693/λz) to calculate. […]

[2] = CYP2C19 EM, Japanese; cited from earlier work

In the case of `COc1ccc2[nH]c([S+]([O-])Cc3ncc(C)c(OC)c3C)nc2c1` (stereo not shown) [omeprazole], the Cmax ([1]; CYP2C19 EM (N = 12)) is reported as 633.25 ± 295.94 ng/mL, the T1/2 ([1]; CYP2C19 EM (N = 12)) is reported as 44.4 ± 11.4 min and the Cmax ([1]; CYP2C19 PM (N = 4)) is reported as 1650.00 ± 451.66 ng/mL. For the same molecule, the T1/2 [2] was 65.4 ± 4.8 min.
